Data reported in PubChem BioAssay AID743255 (National Center for Advancing Translational Sciences (NCATS), 2014).
This is a selection; strong and weak results do not stand in their true shares. Results filed as inconclusive are left out. The source made the active and inactive calls. Calls follow the shape of the dose curve; as a rule, active = well fitted inhibition curve with a large enough effect; inconclusive = small, poorly fitted or top-dose-only effect; inactive = no such curve, though single readings can be large or run the other way.

By UniProt entry, the sequences of proteins in these tests, tags left out. Where a name states a change or a piece, a line headed by the entry shows the natural chain unless it says otherwise.
UniProt O94782: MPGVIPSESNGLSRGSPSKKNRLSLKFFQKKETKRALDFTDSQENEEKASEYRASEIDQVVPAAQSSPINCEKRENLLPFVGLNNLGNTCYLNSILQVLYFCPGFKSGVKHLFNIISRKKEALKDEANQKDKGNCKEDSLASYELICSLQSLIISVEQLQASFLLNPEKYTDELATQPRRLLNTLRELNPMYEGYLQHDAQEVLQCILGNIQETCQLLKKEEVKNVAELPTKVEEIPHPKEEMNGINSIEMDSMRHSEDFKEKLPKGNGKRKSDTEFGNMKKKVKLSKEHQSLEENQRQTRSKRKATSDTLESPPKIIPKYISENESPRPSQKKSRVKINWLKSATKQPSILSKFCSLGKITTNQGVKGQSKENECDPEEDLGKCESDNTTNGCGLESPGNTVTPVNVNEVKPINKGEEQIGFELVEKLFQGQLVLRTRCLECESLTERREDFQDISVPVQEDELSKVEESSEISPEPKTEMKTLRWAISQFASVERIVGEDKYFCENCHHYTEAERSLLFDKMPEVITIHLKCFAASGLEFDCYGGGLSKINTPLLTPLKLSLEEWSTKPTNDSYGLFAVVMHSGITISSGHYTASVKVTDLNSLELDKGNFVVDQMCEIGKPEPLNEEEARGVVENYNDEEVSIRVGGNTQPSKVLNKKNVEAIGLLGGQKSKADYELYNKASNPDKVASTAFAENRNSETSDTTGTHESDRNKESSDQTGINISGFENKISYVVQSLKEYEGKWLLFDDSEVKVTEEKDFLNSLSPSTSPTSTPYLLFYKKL

Biological target: Ubiquitin carboxyl-terminal hydrolase 1 (Homo sapiens) (UniProt O94782)
Assay: Inhibitors of USP1/UAF1: Primary Screen; also: nearly all actives have a fitted effect of over 60% in size
Conditions: recombinant USP1/UAF1, Ub-Rhodamine cleavage fluorescence; at 57.1 µM (top of the series)
Outline: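 Step one: compound is pinned into 1nM USP1/UAF1 in HEPES pH 7.8 buffer with TCEP. Step two: 15 min room-temperature incubation. Step three: Ub-Rho (150nM final) starts cleavage, tracked by fluorescence over six one-minute reads.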
% is scaled to controls: 0 for no effect and ±100 for the full control effect.

Row | Compound | activity change, negative = inhibition
1 | Nc1ccc([As](=O)(O)c2ccc([N+](=O)[O-])cc2)cc1 | inactive: -6.12%
2 | O=C(OC1CN2CCC1CC2)c1cccc(Cl)c1 (stereo not drawn) | inactive: -8.41%
3 | COc1ccc(N)c([N+](=O)[O-])c1[N+](=O)[O-] | inactive: -7.13%
4 | CN(C)C1(CNC(=O)c2ccc(Cl)c(S(N)(=O)=O)c2)CCCCC1 | inactive: -8.85%
5 | O=P(Nc1ccccn1)(c1ccc(Br)cc1)c1ccc(Br)cc1 | inactive: -15.5%
6 | C[C@H]1OP(=O)(Oc2ccccc2)[C@H](O)[C@H](O)[C@H]1N=[N+]=[N-] (stereo partly drawn) | inactive: -27.4%
7 | O=P(Nc1nc2ccccc2s1)(c1ccccc1)c1ccccc1 | inactive: -11.6%
8 | Cc1ccc(OP(=O)(Nc2ccccn2)Oc2ccc(C)cc2)cc1 | inactive: 0.619%
9 | CC(=O)NC(SC(=S)N(CC(C)C)CC(C)C)C(Cl)(Cl)Cl (stereo not drawn) | inactive: -9.42%
10 | COC(=O)c1cc2c(s1)N=C(c1ccccc1)N(C)P2(=O)N1CCOCC1 (stereo not drawn) | inactive: -6.51%
11 | CCC(=O)N1C2C3N(C(=O)CC)C1C1N(C(=O)CC)C(C(N1C(=O)CC)N3C(=O)CC)N2C(=O)CC | inactive: 3.12%
12 | O=C(OC1CN2CCC1CC2)c1ccccc1 (stereo not drawn) | inactive: -1.72%
13 | O=c1c2cc([N+](=O)[O-])ccc2[nH]c2c([N+](=O)[O-])cc([N+](=O)[O-])cc12 | inactive: -18.7%
14 | CN(C)C(=O)Oc1noc2ccccc12 | inactive: -13.6%
15 | CC(NC(=O)COC(=O)C(O)(c1ccccc1)c1ccccc1)c1ccccc1 (stereo not drawn) | inactive: -7.57%
16 | Cc1ccccc1OP(=O)(Nc1ccccn1)Oc1ccccc1C | inactive: -13%
17 | O=C(NC1CCS(=O)(=O)C1)NP(=S)(Oc1ccccc1)Oc1ccccc1 (stereo not drawn) | inactive: -3.98%

Row | Compound | activity change, negative = inhibition
18 | CCNC(=S)/N=C(\N)N[N+](=O)[O-] | inactive: -5.98%
19 | Cc1ccc(NP(=O)(Oc2cccc(C)c2)Oc2cccc(C)c2)nc1 | inactive: -26.1%
20 | c1ccc(-c2nn[nH]n2)c(-c2nn[nH]n2)c1 | inactive: -17.6%
21 | O=P1(N(CCCl)CCCl)OCCC2CCCCN21 (stereo not drawn) | inactive: -13.3%
22 | COC(=O)C1(C)COP(=O)(NCc2ccccc2)OC1 (stereo not drawn) | inactive: -12.9%
23 | CC(=O)c1ccc(N2CC2c2ccncc2)cc1 (stereo not drawn) | inactive: -16.7%
24 | N#C/C(=C\c1ccc(N(CCBr)CCBr)cc1)C(N)=O | inactive: -7.25%
25 | C[C@H]1OP(=O)(Oc2ccccc2)C[C@@H]2O[C@@H]21 (stereo partly drawn) | inactive: -1.39%
26 | C[C@@H]1C=CCP(=O)(Oc2ccccc2)O1 (stereo partly drawn) | inactive: -24.2%
27 | Cc1ccccc1CN(C)C(=O)COC(=O)C(O)(c1ccccc1)c1ccccc1 | inactive: -2.42%
28 | CC(=O)Nc1ccc(Oc2c([N+](=O)[O-])cc([N+](=O)[O-])cc2[N+](=O)[O-])cc1 | inactive: -20.1%
29 | CC(=O)Nc1ccc([As](=O)(O)O)c(O)c1 | inactive: -21.5%
30 | CCOc1ccc(C2=NCC(CBr)S2)cc1 (stereo not drawn) | inactive: -7.59%
31 | O=P1(Nc2nc3ccc(Cl)cc3s2)COc2ccccc2O1 (stereo not drawn) | inactive: -18.5%
32 | CCc1cc(O)c([N+](=O)[O-])c(C)c1[N+](=O)[O-] | inactive: -19.5%
33 | CC(C)(C)C(=O)NC(Sc1ccccc1)C(Cl)(Cl)Cl (stereo not drawn) | inactive: -26.5%
